# Apparent affinities of Ab-14 variants for a coronavirus HR2 peptide

Target: peptide PDVDLGDISGINAS, taken from heptad repeat 2 (HR2) of SARS-CoV-2 spike.

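The starting antibody came from a phage panning campaign against this peptide. The variants were designed computationally from a first round of random CDR variants and then made and measured. Several design methods are mixed in this list. AlphaSeq pools MATa yeast showing the antibodies with MATalpha yeast showing the peptide. Mating (16 h, 30 °C) was followed by selection of diploids and sequencing of their barcodes. The ratio of observed to expected reads was calibrated, replicate by replicate, on BCL2-family standards whose Kd was known from biolayer interferometry. Mating was done six times.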

The variants keep the heavy chain, the linker and the frameworks of Ab-14 (scFv order VH, three GGGGS repeats, VL).
VH: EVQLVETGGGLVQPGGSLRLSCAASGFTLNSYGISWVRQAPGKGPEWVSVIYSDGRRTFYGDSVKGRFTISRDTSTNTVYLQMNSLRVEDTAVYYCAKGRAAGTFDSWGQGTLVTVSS
VL: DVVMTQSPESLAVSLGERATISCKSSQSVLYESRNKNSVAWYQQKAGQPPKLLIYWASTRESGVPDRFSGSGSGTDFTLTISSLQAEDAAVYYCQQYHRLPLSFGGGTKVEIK

Changes read parent residue, position, new residue, counted from the first residue of the VL shown. This list holds designs with at most six substitutions. Values are log10 of the apparent Kd in nM; lower means stronger binding. An entry "nd" has no value in the source: the pair was not observed among the diploids in that replicate. This suggests poor binding but is not conclusive. As a blank, each scFv also met three strains without target: over all light chain designs, 4% of these pairings were detected, typically at 2.64 and seldom below 1.59. The parent sequence was in this pool as ten entries: three were never detected, three once, and four in most replicates, with averages from 0.34 to 2.37. The range of this assay differs from that of the first round, and the authors advise against merging the two. The authors averaged sequences with at least three values out of six and counted those with two or fewer as poor binders.

| changes | log10 Kd, replicates |
|---|---|
| Q27L+Y31F+W56N+S103R | 1.64 / 1.48 / 1.17 / 1.16 / 0.89 / 1.51 |
| V29W+W56G+T59E+S62V | -0.64 / -0.73 / -0.89 / -0.95 / -0.95 / -0.57 |
| L30E+W56G | 0.70 / 0.65 / 0.69 / 0.60 / 0.53 / 0.53 |
| S25L+S26L+W56H+S62D+Q96L | 1.95 / 1.30 / 1.15 / 1.10 / 1.11 / 1.37 |
| V29M+Y31G+W56H+A57S | 0.88 / 1.09 / 0.88 / 0.87 / 0.94 / 0.81 |
| S38H+S58T | nd / nd / nd / nd / nd / nd |
| W56E+S62P+S103E | 0.66 / 0.56 / 0.32 / 0.31 / 0.43 / 0.43 |
| S26W+Q27M+S33E+P101H+L102N | nd / nd / nd / nd / nd / nd |
| S25L+Q27G+V29D+W56G | -0.47 / -0.59 / -0.54 / -0.68 / -0.71 / -0.72 |
| S25L+S26E+Q27D+V29N+K36G+W56N | 0.38 / 0.39 / 0.19 / 0.13 / 0.28 / 0.45 |
| S25L+S38N+W56G+E61L | -0.38 / -0.35 / -0.34 / -0.62 / -0.59 / -0.27 |
| S25I+L30E+W56N | -0.02 / -0.24 / -0.30 / -0.34 / -0.18 / -0.02 |
| S25I+Q27G+V29E+Y31E+T59V+S62A | 0.75 / 0.62 / 0.53 / 0.67 / 1.06 / 0.74 |
| S25I+W56E+E61M | 1.16 / 0.64 / 0.56 / 0.99 / 0.82 / 0.93 |
| S25L+V29T+E32D+R34Q+W56N+H98K | -0.27 / -0.30 / -0.42 / -0.35 / -0.50 / -0.22 |
| V29T+L30T+Y31T+W56A | 0.03 / -0.17 / 0.00 / -0.31 / 0.02 / 0.02 |
| Y31T+K36L+R60Q | nd / nd / 1.35 / nd / nd / 2.95 |
| S25L+S26F+W56G | 0.17 / -0.05 / -0.20 / -0.21 / -0.26 / 0.00 |
| S33Q+W56E | 0.63 / 0.50 / 0.46 / 0.48 / 0.28 / 0.99 |
| S33A+R34D | 1.14 / 1.48 / 2.09 / 1.39 / 1.08 / 1.54 |
| Y31Q+E32L+K36Q+W56E+S62A | 0.20 / 0.07 / 0.11 / 0.27 / 0.20 / 0.22 |
| V29F+N35T+W56G+Q95Y+P101T | nd / nd / nd / nd / nd / nd |
| S25L+V29T+E32D+R34M+H98K | 0.66 / 0.29 / 0.44 / 0.36 / 0.20 / 0.55 |
| K24H+Q27P+L30F+W56N | 0.47 / 0.43 / 0.72 / 0.02 / 0.16 / 0.78 |
| R34S+W56Y+H98A+L100W | nd / nd / nd / nd / nd / nd |
| S25I+W56N+S62V | -0.05 / 0.11 / -0.03 / -0.17 / -0.16 / 0.05 |
| S25F+W56N+E61L | 0.60 / 0.54 / 0.30 / 0.34 / 0.36 / 0.70 |
| Q96F | 3.33 / 2.64 / nd / 2.81 / nd / 2.10 |
| S25L+V29Y+N35M+W56N+T59Q | 0.21 / 0.01 / 0.23 / 0.06 / 0.14 / 0.25 |
| K24R+R34T+W56M | 0.94 / 0.84 / 1.13 / 0.55 / 0.66 / 1.21 |
| K36F+S58G | nd / nd / 2.34 / nd / nd / nd |
| S25L+S26R+V29T+W56Q+S103T | 0.15 / -0.49 / -0.52 / 0.28 / -0.08 / -0.24 |
| S25F+S26Q+V29W+W56N+T59C | -0.08 / -0.02 / -0.28 / -0.29 / -0.30 / -0.02 |
| S25L+S26Q+V29D+W56G | -0.18 / -0.40 / -0.36 / -0.45 / -0.39 / -0.31 |
| S25L+S33E+S38N+W56Q | -0.09 / 0.17 / -0.14 / -0.46 / -0.22 / 0.02 |
| Q27W+S103N | nd / nd / nd / nd / nd / nd |
| S33Q+K36G+S38Q+Y97C+L102F | nd / nd / nd / nd / nd / nd |

For reference, 4 entries of the list once more:

| changes | log10 Kd, replicates |
|---|---|
| S26W+Q27M+S33E+P101H+L102N | nd / nd / nd / nd / nd / nd |
| S25I+W56E+E61M | 1.16 / 0.64 / 0.56 / 0.99 / 0.82 / 0.93 |
| K24H+Q27P+L30F+W56N | 0.47 / 0.43 / 0.72 / 0.02 / 0.16 / 0.78 |
| S25L+S26F+W56G | 0.17 / -0.05 / -0.20 / -0.21 / -0.26 / 0.00 |

Values reported by Li et al. 2023, doi:10.1038/s41467-023-39022-2 (FLAb copy).